Our source for the IC50 values is patent US20260384446A1, “PREPARATION FOR AND USE OF 7-HYDROXYLAMINE -SUBSTITUTED ALKYL CAMPTOTHECIN DERIVATIVES” (published 2026).

Structures are written as SMILES.

The test system of assay [1] is human lung cancer cells (NCI-H1975). The assay is described as follows: Inhibition of tumor cell growth activity (CCK-8, 72 h), NCI-H1975. To be noted: read-out: IC50 (nM) values of compounds inhibiting tumor cell growth, NCI-H1975.
Assay [2] relates to Human esophageal cancer cells (OE33). Nature of the assay: Inhibition of tumor cell growth activity (CCK-8, 72 h), OE33. The conditions noted are these: read-out: IC50 (nM) values of compounds inhibiting tumor cell growth, OE33.
The next assay deals with Sk-Br-3. Nature of the assay: Inhibition of tumor cell growth activity (CCK-8, 72 h), Sk-Br-3. The conditions noted are these: read-out: IC50 (nM) values of compounds inhibiting tumor cell growth, Sk-Br-3, Sk-Br-3 cells.
The subject of assay [3] is human breast cancer cells (MDA-MB-231). The assay is described as follows: Inhibition of tumor cell growth activity (CCK-8, 72 h), MDA-MB-231. The conditions noted are these: read-out: IC50 (nM) values of compounds inhibiting tumor cell growth, MDA-MB-231, MDA-MB-231 cells.
Assay [4] concerns human gastric cancer cells (NCI-N87). The assay is described as follows: Inhibition of tumor cell growth activity (CCK-8, 72 h), NCI-N87. To be noted: read-out: IC50 (nM) values of compounds inhibiting tumor cell growth, NCI-N87.

As to `CC[C@@]1(O)C(=O)OCc2c1cc1n(c2=O)Cc2c-1nc1cc3c(cc1c2CCCNOC)OCO3`, the IC50 was 10 to 100 nM in assay [1]; < 10 nM in assay [2]; < 10 nM with Sk-Br-3; 10 to 100 nM in assay [3]; < 10 nM in assay [4].
As to `CC[C@@]1(O)C(=O)OCc2c1cc1n(c2=O)Cc2c-1nc1ccccc1c2CNOC`, the half-maximal inhibitory concentration (IC50) in assay [1] lay in the range of 100 to 500 nM; in assay [2], 10 to 100 nM; in the assay on Sk-Br-3, 10 to 100 nM; in assay [3], 100 to 500 nM; in assay [4] it was 10 to 100 nM.
In the case of `CC[C@@]1(O)C(=O)OCc2c1cc1n(c2=O)Cc2c-1nc1cc(F)c(F)cc1c2CCNOC`, the IC50 was 10 to 100 nM in assay [1]; < 10 nM in assay [2]; < 10 nM in the assay with Sk-Br-3; 100 to 500 nM in assay [3]; < 10 nM in assay [4].
Turning to `CC[C@@]1(O)C(=O)OCc2c1cc1n(c2=O)Cc2c-1nc1cc(F)c(C)cc1c2CNOC`, the IC50 in assay [1] is 10 to 100 nM; in assay [2], < 10 nM; in the assay with Sk-Br-3, < 10 nM; in assay [3], 10 to 100 nM; in assay [4] it was < 10 nM.
In the case of `CC[C@@]1(O)C(=O)OCc2c1cc1n(c2=O)Cc2c-1nc1cc(F)c(C)cc1c2CCNOC`, the IC50 in assay [1] is < 10 nM; in assay [2] it was < 10 nM; with Sk-Br-3, < 10 nM; in assay [3], 10 to 100 nM; in assay [4] it was < 10 nM.
For `CC[C@@]1(O)C(=O)OCc2c1cc1n(c2=O)Cc2c-1nc1ccccc1c2CCNOC`, the IC50 was 10 to 100 nM in assay [1]; 10 to 100 nM in assay [2]; < 10 nM with Sk-Br-3; 100 to 500 nM in assay [3]; < 10 nM in assay [4].
For the molecule `CC[C@@]1(O)C(=O)OCc2c1cc1n(c2=O)Cc2c-1nc1cc3c(cc1c2CCNOC)OCO3`, the IC50 in assay [1] was 10 to 100 nM; in assay [2] it was < 10 nM; in the assay with Sk-Br-3, < 10 nM; in assay [3], 100 to 500 nM; in assay [4], < 10 nM.
Regarding `CC[C@@]1(O)C(=O)OCc2c1cc1n(c2=O)Cc2c-1nc1cc(F)c(F)cc1c2CNOC`, the IC50 is 10 to 100 nM in assay [1]; < 10 nM in assay [2]; 10 to 100 nM in the assay with Sk-Br-3; 100 to 500 nM in assay [3]; 10 to 100 nM in assay [4].
Regarding `CC[C@@]1(O)C(=O)OCc2c1cc1n(c2=O)Cc2c-1nc1cc3c(cc1c2CNOC)OCO3`, the half-inhibitory concentration (IC50) in assay [1] was 10 to 100 nM; in assay [2] it was < 10 nM; in the assay with Sk-Br-3 it was < 10 nM; in assay [3] it was 10 to 100 nM; in assay [4], < 10 nM.
Turning to `CC[C@@]1(O)C(=O)OCc2c1cc1n(c2=O)Cc2c-1nc1cc(F)c(C)c3c1c2[C@@H](NC(=O)CO)CC3`, the half-inhibitory concentration (IC50) in assay [1] and in assay [3] was 100 to 500 nM in each case.

The IC50 is the concentration that gives 50% inhibition.
